In patent publication US7214716B2, “Agonists specific for the peripheral cannabinoid receptor” (Yissum Research Development Co. of the Hebrew University of …, priority 2000, dated 2007) one finds Ki data, which are given here for one compound.

The chains behind the UniProt entries cited, without tags or fusion partners.
UniProt P34972, whole entry: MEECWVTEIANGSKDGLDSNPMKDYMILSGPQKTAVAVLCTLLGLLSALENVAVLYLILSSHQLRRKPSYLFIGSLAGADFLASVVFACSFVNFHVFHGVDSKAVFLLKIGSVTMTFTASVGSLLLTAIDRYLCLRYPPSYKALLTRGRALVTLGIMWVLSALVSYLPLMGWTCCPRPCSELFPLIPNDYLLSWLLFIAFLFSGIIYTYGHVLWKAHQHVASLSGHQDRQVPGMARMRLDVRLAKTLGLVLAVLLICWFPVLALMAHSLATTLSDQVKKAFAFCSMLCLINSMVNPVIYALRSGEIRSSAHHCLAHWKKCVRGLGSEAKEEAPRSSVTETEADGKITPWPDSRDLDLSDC

This assay deals with T1, CB2 cannabinoid receptor (Homo sapiens, UniProt P34972).
T1 construct: expressed in transfected cells; host or cells: COS-7
The assay is described as follows: biochemical. The assay is classed as binding. The text has this:
This difference in binding is reflected in the results of the pharmacological assays. […] Such effects are considered to be mediated by the CBI receptor.

`CCCCCCC(C)(C)c1cc(OC)c([C@H]2C=C(CO)[C@H]3CC2C3(C)C)c(OC)c1` (single isomer, unassigned; (+)) [HU-308, (+)-(1-a-H,-(3-H,5-a-H)-4-(2,6-dimethoxy-4-(1,1-dimethylheptyl)phenyl]-6,6-dimethylbicycloj3.1.1]hept-2-ene-2-carbinol]: the Ki stood at 22.7 ± 3.9 nM.
